{
  "source": "paper PMC7064328",
  "about": "“Evaluation of Maternal, Embryo, and Placental Effects in CD-1 Mice following Gestational Exposure to Perfluorooctanoic Acid (PFOA) or Hexafluoropropylene Oxide Dimer Acid (HFPO-DA or GenX)” (Environmental Health Perspectives, 2020)",
  "test_system": "Pregnant CD-1 mice",
  "experiment": "Maternal indices: dam body weight, gestational weight gain, liver and kidney weight after daily oral gavage E1.5 to E11.5 or E17.5",
  "format": "in vivo, mouse (CD-1)",
  "conditions": "for Relative GWG, E11.5 estimate (95% CI) / Relative GWG, E17.5 Estimate (95% CI) / Relative GWG, E11.5 Estimate (95% CI) relative to VC: adjusted for litter size",
  "protocol": "Naïve female CD-1 mice between 7.5 and 15.5 wk of age from the NIEHS colony were bred in-house on a single night, and copulatory plug–positive females were identified on embryonic day (E) 0.5. Pregnant dams were singly housed in ventilated polypropylene cages and received nesting materials, National Institutes of Health (NIH)-31 diet (Zeigler Bros., Inc.) and reverse osmosis deionized (RODI) water ad libitum. Animals were housed in humidity- and temperature-controlled rooms with 25°C and 45–60% average humidity and standard 12-h light cycles. All animal procedures were approved by the NIEHS Animal Care and Use Committee (ASP #2017-0022).\nPFOA ammonium salt (CAS #3825-26-1) was purchased from Millipore Sigma, and GenX [ammonium 2,3,3,3-tetrafluoro-2-(heptafluoropropoxy)propanoate; CAS# 62,037-80-3] was purchased from SynQuest Laboratories. PFOA and GenX dosing solutions were prepared in RODI water and administered to mice once daily via oral gavage. Daily doses were administered between 0700 and 0800 hours and adjusted to the BW of the mouse based on the previous day’s weight at a volume of 0.01mL/g BW. […] The dose of 1mg/kg BW/d PFOA, used in the mouse developmental toxicity study of [Lau et al. 2006], provided a lowest effect dose that was used to set the reference dose within the U.S. EPA’s drinking water lifetime health advisory level (HAL) of 70 ppt PFOA ([U.S. EPA 2016]). Given that the state of North Carolina has a provisional health goal of 140 ppt GenX (double the PFOA HAL), we selected doses of GenX ( 10mg/kg BW/d , high dose; 2mg/kg BW/d , low dose) to mirror doses of PFOA previously used in HAL decision-making.\nThis experiment was conducted over two blocks (Block 1 and Block 2) to achieve a total of n=11–13 litters per treatment group and sacrifice time point (E11.5 and E17.5). The experimental design of the second block was identical to the first block of the study, and experimental methods were similar but expanded upon to include more rigorous and detailed measurements. Copulatory plug–positive mice (E0.5) were weighed to obtain a baseline BW and placed into one of five groups. Once all mice were assigned to groups, mean BWs were calculated, and a few animals were reassigned so that mean BWs in each group were similar. This was done to avoid confounding effects of baseline BW. Treatment groups were then randomly assigned a color by using a random sequence generator. Experimenters and dosing technicians were blinded to the treatment group to which the color groups corresponded throughout the duration of the study, including at necropsy. Randomly assigned treatment groups included in each block: vehicle control (deionized water only), 1mg/kg BW/d PFOA, 5mg/kg BW/d PFOA, 2mg/kg BW/d GenX, and 10mg/kg BW/d GenX. Pregnant dams were dosed via oral gavage from E1.5 to E11.5 or from E1.5 to E17.5. The sacrifice time points were selected a priori to examine effects of gestational PFOA or GenX exposure on embryo and placental growth prior to placental maturation (E11.5) as well as after full placental maturation (E17.5) ([Watson and Cross 2005]). The E11.5 early-gestation time point was selected because it overlaps a critical period of placental development in the mouse where the placenta undergoes vascularization with the uterine wall and chorioallantoic branching of vessels begins ([Watson and Cross 2005]). The E17.5 late-gestation time point was selected so that embryo weight changes that may be related to treatment would be evident.\nOn the day of necropsy, dams received daily oral gavage between 0700 and 0800 hours and were weighed and then euthanized humanely by swift decapitation, and serum was collected. In Block 1, necropsies were completed from 0800 to 1600 hours, and in Block 2, necropsies were completed from 0800 to 1200 hours. Serum from dams euthanized in Block 1 was snap frozen for internal dosimetry analyses. Serum and urine from Block 2 dams were reserved for clinical chemistry analyses. […]",
  "note": "Several values for one entry are separate records, joined by “and”; a condition that tells them apart may be missing. Equal values may be shown once.",
  "data": [
    {"compound": "N.O=C(O)C(F)(OC(F)(F)C(F)(F)C(F)(F)F)C(F)(F)F", "note": "(centres unmarked) [GenX, ammonium 2,3,3,3-tetrafluoro-2-(heptafluoropropoxy)propanoate]", "values": [
      {"measurement": "Relative kidney weight", "setting": "E11.5, 2 mg/kg/d", "result": "0.54±0.04", "unit": "% BW"},
      {"measurement": "Relative liver weight", "setting": "E11.5, 2 mg/kg/d", "result": "8.1±0.5", "unit": "% BW"},
      {"measurement": "Greater BW gain (GWG) relative to vehicle controls", "setting": "E11.5, 10 mg/kg/d", "result": 7.4, "unit": "%"},
      {"measurement": "Relative kidney weight", "setting": "E11.5, 10 mg/kg/d", "result": "0.52±0.11", "unit": "% BW"},
      {"measurement": "Relative liver weight", "setting": "E11.5, 10 mg/kg/d", "result": "10.2±0.7", "unit": "% BW"},
      {"measurement": "Relative kidney weight", "setting": "E17.5, 2 mg/kg/d", "result": "0.37±0.02", "unit": "% BW"},
      {"measurement": "Relative liver weight", "setting": "E17.5, 2 mg/kg/d", "result": "6.3±1.0", "unit": "% BW"},
      {"measurement": "Relative kidney weight", "setting": "E17.5, 10 mg/kg/d", "result": "0.43±0.03", "unit": "% BW"},
      {"measurement": "Relative liver weight", "setting": "E17.5, 10 mg/kg/d", "result": "8.1±0.5", "unit": "% BW"},
      {"measurement": "Relative GWG, E11.5 estimate (95% CI)", "setting": "2 mg/kg/d", "result": "20.8 (4.7, 36.9) % gain from embryonic day 0.5"},
      {"measurement": "Relative GWG, E17.5 Estimate (95% CI)", "setting": "2 mg/kg/d", "result": "48.7 (10.3, 87.1) % gain from embryonic day 0.5"},
      {"measurement": "Relative GWG, E11.5 estimate (95% CI)", "setting": "10 mg/kg/d", "result": "24.4 (8.1, 40.6) % gain from embryonic day 0.5"},
      {"measurement": "Relative GWG, E17.5 Estimate (95% CI)", "setting": "10 mg/kg/d", "result": "55.3 (16.7, 93.7) % gain from embryonic day 0.5"},
      {"measurement": "Relative GWG, E11.5 Estimate (95% CI) relative to VC", "setting": "fourth column (after E17.5 estimate), 2 mg/kg/d", "result": "12.5 ( -0.5, 25.6) % gain from embryonic day 0.5"},
      {"measurement": "Relative GWG, E11.5 Estimate (95% CI) relative to VC", "setting": "fourth column (after E17.5 estimate), 10 mg/kg/d, 10 mg/kg/day", "result": "19.1 (5.9, 32.2) % gain from embryonic day 0.5 and 19.1 % gain from embryonic day 0.5"},
      {"measurement": "Relative GWG, E11.5 Estimate (95% CI) relative to VC", "setting": "second column, 2 mg/kg/d", "result": "3.5 (-2.5, 9.5) % gain from embryonic day 0.5"},
      {"measurement": "Relative GWG, E11.5 Estimate (95% CI) relative to VC", "setting": "second column, 10 mg/kg/d, 10 mg/kg/day", "result": "7.1 (0.9, 13.2) % gain from embryonic day 0.5 and 7.1 % gain from embryonic day 0.5"}
    ]}
  ]
}
